Measured values published in US10280159B2 (AbbVie Deutschland GmbH & Co. KG, priority 2015, dated 2019).

Amino acid sequences for entries named in this document (tags omitted).
UniProt Q9H228, whole entry: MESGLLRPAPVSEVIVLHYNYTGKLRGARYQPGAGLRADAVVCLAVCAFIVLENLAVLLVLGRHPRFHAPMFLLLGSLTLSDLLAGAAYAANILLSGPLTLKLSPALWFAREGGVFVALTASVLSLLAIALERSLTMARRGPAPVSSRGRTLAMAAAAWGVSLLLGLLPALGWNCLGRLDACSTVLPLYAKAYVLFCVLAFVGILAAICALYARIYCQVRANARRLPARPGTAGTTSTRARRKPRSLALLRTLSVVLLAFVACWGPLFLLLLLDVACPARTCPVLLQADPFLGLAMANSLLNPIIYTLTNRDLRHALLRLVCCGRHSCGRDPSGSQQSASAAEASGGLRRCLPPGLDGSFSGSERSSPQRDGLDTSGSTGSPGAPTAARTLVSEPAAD
UniProt P21453, whole entry: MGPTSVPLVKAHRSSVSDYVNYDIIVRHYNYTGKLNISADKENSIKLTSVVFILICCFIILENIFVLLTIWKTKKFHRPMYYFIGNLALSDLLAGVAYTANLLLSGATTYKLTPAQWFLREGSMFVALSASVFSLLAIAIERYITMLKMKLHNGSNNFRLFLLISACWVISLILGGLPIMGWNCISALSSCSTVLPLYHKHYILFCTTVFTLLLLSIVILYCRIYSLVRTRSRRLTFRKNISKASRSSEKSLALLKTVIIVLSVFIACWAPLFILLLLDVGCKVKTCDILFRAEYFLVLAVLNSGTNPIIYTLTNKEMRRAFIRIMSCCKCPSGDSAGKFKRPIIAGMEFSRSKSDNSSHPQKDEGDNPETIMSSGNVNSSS
UniProt O95977, whole entry: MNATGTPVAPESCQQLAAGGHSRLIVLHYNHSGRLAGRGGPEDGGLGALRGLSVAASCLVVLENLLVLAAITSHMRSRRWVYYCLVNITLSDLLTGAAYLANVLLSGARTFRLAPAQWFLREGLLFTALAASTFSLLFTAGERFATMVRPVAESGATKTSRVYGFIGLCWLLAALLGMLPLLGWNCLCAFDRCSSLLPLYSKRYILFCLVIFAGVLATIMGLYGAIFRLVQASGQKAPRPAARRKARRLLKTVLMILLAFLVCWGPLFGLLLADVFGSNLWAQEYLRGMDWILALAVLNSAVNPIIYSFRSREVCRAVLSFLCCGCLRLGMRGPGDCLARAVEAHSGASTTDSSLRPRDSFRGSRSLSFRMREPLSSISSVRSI
UniProt Q99500, whole entry: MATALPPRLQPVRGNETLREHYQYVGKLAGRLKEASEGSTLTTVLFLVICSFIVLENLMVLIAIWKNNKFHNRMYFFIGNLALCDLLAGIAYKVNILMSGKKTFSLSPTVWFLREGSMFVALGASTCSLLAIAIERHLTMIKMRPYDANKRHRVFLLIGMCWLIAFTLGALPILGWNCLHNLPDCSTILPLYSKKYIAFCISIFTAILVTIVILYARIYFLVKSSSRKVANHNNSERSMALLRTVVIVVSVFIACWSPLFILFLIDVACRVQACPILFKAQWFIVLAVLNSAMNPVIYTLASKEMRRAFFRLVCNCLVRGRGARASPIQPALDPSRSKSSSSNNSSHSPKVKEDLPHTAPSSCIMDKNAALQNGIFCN

Experiments:
Format in all cases: cell-based
[1] = target: human S1PR5 (Homo sapiens, UniProt Q9H228); assay: Intracellular Ca2+ release (FLIPR) agonist potency, S1P5; conditions: read-out: S1P5 EC50 range; recombinant CHO-K1 cells expressing human S1PR5, aequorin, Gq/i5; Calcium 5 FLIPR
[2] = target: human S1PR1 (Homo sapiens, UniProt P21453); assay: Intracellular Ca2+ release (FLIPR) agonist potency, S1P1; conditions: read-out: S1P1 EC50; recombinant CHO-K1 cells expressing human S1PR1, aequorin, Gq/i5; Calcium 5 FLIPR
[3] = target: human S1PR4 (Homo sapiens, UniProt O95977); assay: Intracellular Ca2+ release (FLIPR) agonist potency, S1P4; conditions: read-out: S1P4 EC50; recombinant CHO-K1 cells expressing human S1PR4, aequorin, Gq/i5; Calcium 5 FLIPR
[4] = target: human S1PR3 (Homo sapiens, UniProt Q99500); assay: Intracellular Ca2+ release (FLIPR) agonist potency, S1P3; conditions: read-out: S1P3 EC50; recombinant CHO-K1 cells expressing human S1PR3, aequorin, Gq/i5; Calcium 5 FLIPR

Row | Structure (SMILES) | EC50 [1] [nM] | EC50 [2] [nM] | EC50 [3] [nM] | EC50 [4] [nM]
1 | O=C(O)CC1CN(C2COCc3cc(OCc4c(Cl)cccc4Cl)ccc32)C1 (stereo not shown) | 100 to 1000 | > 1000 | > 1000 | –
2 | CCc1cccc(Cl)c1COc1ccc2c(c1)CCC(N1CC(C(=O)NOC)C1)C2 (stereo not shown) | 10 to 100 | > 1000 | > 1000 | > 1000
3 | Cc1ccc(C(F)(F)F)c(COc2ccc3c(c2)CCC(OCCC(=O)O)C3)c1 (stereo not shown) | 1000 to 10000 | > 1000 | > 1000 | –
